Consider one molecule from ChEMBL document CHEMBL1909509, “Mepyramine-JNJ7777120-hybrid compounds show high affinity to hH(1)R, but low affinity to hH(4)R” (Bioorg Med Chem Lett, 2011).

Chains of the proteins cited; added tags and fusions are not shown.
UniProt P31389, whole entry, looked up: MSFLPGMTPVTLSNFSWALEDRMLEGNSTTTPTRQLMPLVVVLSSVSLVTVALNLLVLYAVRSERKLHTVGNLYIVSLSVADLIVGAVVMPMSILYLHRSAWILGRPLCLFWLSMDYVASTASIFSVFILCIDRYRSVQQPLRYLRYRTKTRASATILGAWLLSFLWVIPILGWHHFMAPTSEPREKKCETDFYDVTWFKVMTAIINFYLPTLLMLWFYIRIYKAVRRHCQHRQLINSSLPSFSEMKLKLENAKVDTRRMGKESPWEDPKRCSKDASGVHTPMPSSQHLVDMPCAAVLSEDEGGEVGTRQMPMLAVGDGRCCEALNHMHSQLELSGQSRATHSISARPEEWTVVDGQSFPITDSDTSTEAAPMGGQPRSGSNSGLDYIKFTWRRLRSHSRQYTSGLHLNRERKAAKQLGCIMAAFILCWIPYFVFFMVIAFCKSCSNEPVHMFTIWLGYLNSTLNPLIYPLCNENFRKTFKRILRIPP

In the assay the target is Histamine H1 receptor (Cavia porcellus) (UniProt P31389). Put plainly: Partial agonist activity at H1R in guinea pig ileum assessed as inhibition of histamine-induced muscle contraction after 15 mins. The format is functional, tissue-based. In outline: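 Isolated guinea-pig ileum, contraction induced by histamine; test ligand incubated 15 min before the histamine response.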

The source made the active and inactive calls. No cut-off for these calls is given here.

On to `O=C(c1cc2ccccc2[nH]1)N1CCN(CCN2CCC(Nc3nc4ccccc4n3Cc3ccc(F)cc3)CC2)CC1`, for which the inhibition entry was “inactive”.
